{"source": "patent US8881823B2", "about": "“Environmentally friendly low temperature breaker systems and related methods” (Halliburton Energy Services, Inc., priority 2011, dated 2014)", "key": {"[1]": {"assay": "Calcite dissolving capacity of breaker systems", "format": "physicochemical", "details": "2.5 g BARACARB 5 in 50 mL test fluid, one hour"}, "[2]": {"assay": "Miscibility and pH of breaker systems in fresh water", "format": "physicochemical", "details": "breaker system in fresh water, 150° F. for 16 hours"}}, "data": [{"substance": "EDTA sodium salt", "values": [{"measurement": "% Carbonate Complexed or Dissolved", "setting": "[1]", "result": 35.2, "unit": "%"}, {"measurement": "Final Weight of BARACARB 5, g", "setting": "[1]", "result": 1.62, "unit": "g"}, {"measurement": "pH", "setting": "[2]", "result": ">12"}]}]}
